The results in this text go back to article PMC11817943.

This assay addresses full-length human VARP with a C-terminal 10xHis tag (human) (UniProt Q96NW4). Briefly: BLI; His-tagged VARP FL (0.05 mg/ml) on a Ni-NTA biosensor; SNX27 FL (0.5-4.0 μM) or Retromer (0.25-2.0 μM) in solution; 10 mM tris pH 8.0, 150 mM NaCl, 0.1% BSA; triplicate.

In turn, “Retromer heterotrimer (VPS26/VPS35/VPS29) (from UniProt O75436 1-327; Q96QK1 1-796; Q9UBQ0 1-182) (complex; other documents disagree on this pair)” displayed a Kd of 70 nM and a stoichiometry N (Retromer per VARP) of 2.

By Kd is commonly meant the equilibrium constant for the complex coming apart. A low value points to higher affinity.
